Measurements reported in PMC8882856.

Amino acid sequences for entries named in this document (tags omitted).
UniProt P08588, whole entry: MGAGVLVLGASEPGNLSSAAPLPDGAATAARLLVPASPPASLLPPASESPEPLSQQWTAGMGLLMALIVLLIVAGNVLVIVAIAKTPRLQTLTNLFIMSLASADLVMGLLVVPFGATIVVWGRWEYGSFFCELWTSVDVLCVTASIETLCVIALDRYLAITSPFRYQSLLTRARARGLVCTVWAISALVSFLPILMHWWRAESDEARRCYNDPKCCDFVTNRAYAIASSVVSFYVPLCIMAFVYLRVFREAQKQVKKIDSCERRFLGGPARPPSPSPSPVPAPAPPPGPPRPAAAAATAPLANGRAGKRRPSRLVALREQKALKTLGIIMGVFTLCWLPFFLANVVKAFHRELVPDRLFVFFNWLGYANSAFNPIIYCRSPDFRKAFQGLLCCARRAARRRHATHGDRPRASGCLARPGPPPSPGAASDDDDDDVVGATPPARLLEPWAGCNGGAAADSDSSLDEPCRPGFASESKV

Biological target: human β1‐adrenoceptor (Homo sapiens, UniProt P08588)
Conditions: ^3H‐CGP12177 whole cell binding; log values, mean ± s.e.mean; ^app = apparent KD; 'no binding to' = log top concentration

COc1cccc2c1CCC[C@H]2CN(C)CCc1ccc2ccoc2c1 [A80426]
Log KD β1: −6.03 ± 0.05
